Test results: BindingDB's records for PubMed 8450829 (Cnrs, 1993)
pKi: −log10 of the molar value.

Protein sequences, listed by entry. Tags and fused reporters are not part of them.
UniProt P31387, whole entry: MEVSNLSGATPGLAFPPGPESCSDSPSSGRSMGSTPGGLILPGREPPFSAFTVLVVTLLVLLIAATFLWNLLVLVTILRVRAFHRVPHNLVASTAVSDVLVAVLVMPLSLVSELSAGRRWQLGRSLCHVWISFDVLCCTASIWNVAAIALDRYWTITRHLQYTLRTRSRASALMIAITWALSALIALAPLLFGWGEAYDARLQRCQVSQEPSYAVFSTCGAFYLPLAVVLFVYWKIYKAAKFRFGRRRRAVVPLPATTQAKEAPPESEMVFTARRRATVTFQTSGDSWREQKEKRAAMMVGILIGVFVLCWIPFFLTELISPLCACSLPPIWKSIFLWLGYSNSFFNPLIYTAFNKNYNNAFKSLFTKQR

Target: 5-hydroxytryptamine receptor 5B (Mus musculus, UniProt P31387)

pKi: 6.00
Structure (SMILES): COC(=O)[C@@H]1[C@H]2C[C@H]3c4[nH]c5ccccc5c4CCN3C[C@@H]2CC[C@@H]1O [yohimbic acid methyl ester]
